The values that follow come from the Human Domainome abundance scans (Beltran et al. 2025).

± gives the uncertainty stated by the source.

The chains are these.
B1: Tyrosine-protein kinase ABL1, residues 64 to 120; numbered along this chain, P00519 (parent)
chain: NLFVALYDFVASGDNTLSITKGEKLRVLGYNHNGEWCEAQTKNGQGWVPSNYITPVN

Variants of B1 are the subject of this series. The series is described as follows: abundance fitness (aPCA) (normalised: wild type 0, dead -1); higher = more abundant; growth selection in yeast, the domain comes from the species named. To be noted: Homo sapiens.
NLFVALYDFVASGDNTLSITKGEKLRVLGYNHNGEWCEAQTKDGQGWVPSNYITPVN [N43D]: the abundance fitness was determined as 0.037 ± 0.11.
The figure for NLFVALYDFVASGDNTLSITKGEKLRVLGYNHNGEWCEAQTKYGQGWVPSNYITPVN [N43Y] is -0.232 ± 0.096.
The figure for NLFVALYDFVASGDNTLSITKGEKLRVLGYNHNGEWCEAQTKPGQGWVPSNYITPVN [N43P] is -0.881 ± 0.16; for NLFVALYDFVASGDNTLSITKGEKLRVLGYNHNGEWCEAQTKFGQGWVPSNYITPVN [N43F] it is -0.524 ± 0.2; for NLFVALYDFVASGDNTLSITKGEKLRVLGYNHNGEWCEAQTKTGQGWVPSNYITPVN [N43T] it is -0.145 ± 0.11.
As to NLFVALYDFVASGDNTLSITKGEKLRVLGYNHNGEWCEAQTKIGQGWVPSNYITPVN [N43I], the abundance fitness came out at 0.005 ± 0.057.
Take NLFVALYDFVASGDNTLSITKGEKLRVLGYNHNGEWCEAQTKRGQGWVPSNYITPVN [N43R]: the abundance fitness is -0.016 ± 0.061.
Turning to NLFVALYDFVASGDNTLSITKGEKLRVLGYNHNGEWCEAQTKCGQGWVPSNYITPVN [N43C], the abundance fitness is -0.334 ± 0.12.
The figure for NLFVALYDFVASGDNTLSITKGEKLRVLGYNHNGEWCEAQTKAGQGWVPSNYITPVN [N43A] is 0.06 ± 0.057; for NLFVALYDFVASGDNTLSITKGEKLRVLGYNHNGEWCEAQTKQGQGWVPSNYITPVN [N43Q] it is 0.096 ± 0.095.
Take NLFVALYDFVASGDNTLSITKGEKLRVLGYNHNGEWCEAQTKHGQGWVPSNYITPVN [N43H]: the abundance fitness was -0.136 ± 0.1.
The figure for NLFVALYDFVASGDNTLSITKGEKLRVLGYNHNGEWCEAQTKKGQGWVPSNYITPVN [N43K] is 0.118 ± 0.085; for NLFVALYDFVASGDNTLSITKGEKLRVLGYNHNGEWCEAQTKMGQGWVPSNYITPVN [N43M] it is -0.115 ± 0.098; for NLFVALYDFVASGDNTLSITKGEKLRVLGYNHNGEWCEAQTKSGQGWVPSNYITPVN [N43S] it is 0.146 ± 0.096.
The figure for NLFVALYDFVASGDNTLSITKGEKLRVLGYNHNGEWCEAQTKLGQGWVPSNYITPVN [N43L] is -0.003 ± 0.074; for NLFVALYDFVASGDNTLSITKGEKLRVLGYNHNGEWCEAQTKGGQGWVPSNYITPVN [N43G] it is 0.128 ± 0.08.
The figure for NLFVALYDFVASGDNTLSITKGEKLRVLGYNHNGEWCEAQTKVGQGWVPSNYITPVN [N43V] is 0.007 ± 0.063; for NLFVALYDFVASGDNTLSITKGEKLRVLGYNHNGEWCEAQTKEGQGWVPSNYITPVN [N43E] it is -0.142 ± 0.15.
In the case of NLFVALYDFVASGDNTLSITKGEKLRVLGYNHNGEWCEASTKNGQGWVPSNYITPVN [Q40S], the abundance fitness was 0.06 ± 0.076.
Under NLFVALYDFVASGDNTLSITKGEKLRVLGYNHNGEWCEAGTKNGQGWVPSNYITPVN [Q40G] stands -0.213 ± 0.063; under NLFVALYDFVASGDNTLSITKGEKLRVLGYNHNGEWCEAKTKNGQGWVPSNYITPVN [Q40K], 0.215 ± 0.12; under NLFVALYDFVASGDNTLSITKGEKLRVLGYNHNGEWCEAPTKNGQGWVPSNYITPVN [Q40P], -0.917 ± 0.33.
NLFVALYDFVASGDNTLSITKGEKLRVLGYNHNGEWCEAHTKNGQGWVPSNYITPVN [Q40H]: the abundance fitness is 0.038 ± 0.11.
The figure for NLFVALYDFVASGDNTLSITKGEKLRVLGYNHNGEWCEAITKNGQGWVPSNYITPVN [Q40I] is -0.259 ± 0.14; for NLFVALYDFVASGDNTLSITKGEKLRVLGYNHNGEWCEAMTKNGQGWVPSNYITPVN [Q40M] it is 0.063 ± 0.12; for NLFVALYDFVASGDNTLSITKGEKLRVLGYNHNGEWCEAWTKNGQGWVPSNYITPVN [Q40W] it is -0.104 ± 0.086.
In the case of NLFVALYDFVASGDNTLSITKGEKLRVLGYNHNGEWCEAYTKNGQGWVPSNYITPVN [Q40Y], the abundance fitness was 0.155 ± 0.089.
Under NLFVALYDFVASGDNTLSITKGEKLRVLGYNHNGEWCEALTKNGQGWVPSNYITPVN [Q40L] stands 0.013 ± 0.088; under NLFVALYDFVASGDNTLSITKGEKLRVLGYNHNGEWCEATTKNGQGWVPSNYITPVN [Q40T], -0.007 ± 0.085.
The figure for NLFVALYDFVASGDNTLSITKGEKLRVLGYNHNGEWCEANTKNGQGWVPSNYITPVN [Q40N] is 0.025 ± 0.13; for NLFVALYDFVASGDNTLSITKGEKLRVLGYNHNGEWCEARTKNGQGWVPSNYITPVN [Q40R] it is 0.091 ± 0.067.
Under NLFVALYDFVASGDNTLSITKGEKLRVLGYNHNGEWCEAVTKNGQGWVPSNYITPVN [Q40V] stands 0.059 ± 0.062.
For the variant NLFVALYDFVASGDNTLSITKGEKLRVLGYNHNGEWCEAQMKNGQGWVPSNYITPVN [T41M], the abundance fitness was -0.312 ± 0.1.
The figure for NLFVALYDFVASGDNTLSITKGEKLRVLGYNHNGEWCEAQCKNGQGWVPSNYITPVN [T41C] is -0.022 ± 0.098; for NLFVALYDFVASGDNTLSITKGEKLRVLGYNHNGEWCEAQAKNGQGWVPSNYITPVN [T41A] it is -0.308 ± 0.14; for NLFVALYDFVASGDNTLSITKGEKLRVLGYNHNGEWCEAQKKNGQGWVPSNYITPVN [T41K] it is -0.289 ± 0.15.
Under NLFVALYDFVASGDNTLSITKGEKLRVLGYNHNGEWCEAQYKNGQGWVPSNYITPVN [T41Y] stands -0.201 ± 0.28; under NLFVALYDFVASGDNTLSITKGEKLRVLGYNHNGEWCEAQFKNGQGWVPSNYITPVN [T41F], -0.22 ± 0.093; under NLFVALYDFVASGDNTLSITKGEKLRVLGYNHNGEWCEAQQKNGQGWVPSNYITPVN [T41Q], -0.712 ± 0.17.
Under NLFVALYDFVASGDNTLSITKGEKLRVLGYNHNGEWCEAQGKNGQGWVPSNYITPVN [T41G] stands 0.096 ± 0.062; under NLFVALYDFVASGDNTLSITKGEKLRVLGYNHNGEWCEAQLKNGQGWVPSNYITPVN [T41L], -0.47 ± 0.1.
As for NLFVALYDFVASGDNTLSITKGEKLRVLGYNHNGEWCEAQPKNGQGWVPSNYITPVN [T41P], the abundance fitness is -0.842 ± 0.24.
Take NLFVALYDFVASGDNTLSITKGEKLRVLGYNHNGEWCEAQHKNGQGWVPSNYITPVN [T41H]: the abundance fitness was -0.038 ± 0.17.
Under NLFVALYDFVASGDNTLSITKGEKLRVLGYNHNGEWCEAQSKNGQGWVPSNYITPVN [T41S] stands 0.159 ± 0.09; under NLFVALYDFVASGDNTLSITKGEKLRVLGYNHNGEWCEAQRKNGQGWVPSNYITPVN [T41R], -0.272 ± 0.074; under NLFVALYDFVASGDNTLSITKGEKLRVLGYNHNGEWCEAQIKNGQGWVPSNYITPVN [T41I], -0.327 ± 0.11.
